Source: patent US4146721A, “Pyrazol-4-acetic acid compounds” (priority 1970, dated 1979)

Assays:
[1] = system: Carrageenin edema of the rear paw of the rat; test: Carrageenin edema of the rear paw (antiphlogistic effect); type: in vivo; conditions: Phenylbutazon = 1.0, oral
[2] = system: ultraviolet erythema of the skin on the back of the guinea pig; test: Ultraviolet erythema of the skin on the back (antiphlogistic effect); type: in vivo; conditions: Phenylbutazon = 1.0, oral
in vivo = conditions: mouse, ip

Compound: O=C(O)Cc1cn(-c2ccccc2)nc1-c1ccc(Cl)cc1 [D, 1-phenyl-3-(p-chlorophenyl)-pyrazol-4-acetic acid]
- Retardation of the Carrageenin Edema, Relative Effect [1]: 12.0
- Retardation of the UV-Erythema, Relative Effect [2]: 5.3
- LD50 at 72 h (in vivo): 340 mg/kg
